Measured values reported in patent US11767344B2, “Pharmaceutically acceptable salts of polypeptides and methods of inhibiting the interaction between psd-95 and n-methyl-d-aspartic acid receptor (nmdar)” (BIOCELLS (BEIJING) BIOTECH CO., LTD., priority 2017, dated 2023).

Sequences of proteins named here, by UniProt entry; tags and fusion partners are left off. Residues count along the entry.
UniProt P78352, 61-249 limits assumed: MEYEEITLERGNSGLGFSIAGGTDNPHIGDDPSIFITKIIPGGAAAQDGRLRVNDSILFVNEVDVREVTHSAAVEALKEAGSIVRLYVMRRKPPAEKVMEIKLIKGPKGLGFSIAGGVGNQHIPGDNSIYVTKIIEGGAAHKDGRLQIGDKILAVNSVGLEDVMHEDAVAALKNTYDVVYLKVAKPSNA

Target: PDZ1/2 domain (Homo sapiens, UniProt P78352)
Details: Biacore 3000, CM5 chip, 1:1 binding model

## CC[C@H](C)[C@H](NC(=O)[C@H](CCC(=O)O)NC(=O)[C@@H](NC(=O)[C@H](CC(=O)O)NC(=O)[C@H](CC(C)C)NC(=O)[C@H](CC(C)C)NC(=O)[C@H](CCCCN)NC(=O)[C@H](CCC(=O)O)NC(=O)[C@H](Cc1ccc(O)cc1)NC(=O)[C@H](CCCNC(=N)N)NC(=O)[C@H](CCCNC(=N)N)NC(=O)[C@H](CCCNC(=N)N)NC(=O)[C@H](CCC(N)=O)NC(=O)[C@H](CCCNC(=N)N)NC(=O)[C@H](CCCNC(=N)N)NC(=O)[C@H](CCCCN)NC(=O)[C@H](CCCCN)NC(=O)[C@H](CCCNC(=N)N)NC(=O)CNC(=O)[C@@H](N)Cc1ccc(O)cc1)[C@@H](C)O)C(=O)O [P5]
  Kd: 29.9 nM
